# Values quoted from earlier work, collected in patent publication US20200003762A1, “Diagnostics Platform for Mitochondrial Dysfunctions/Diseases” (BioElectron Technology Corporation, priority 2018, published 2020).
# Amino acid sequences for entries named in this document (tags omitted). A change or cut given only in a name is not applied to a line headed by its entry.
# UniProt P00156: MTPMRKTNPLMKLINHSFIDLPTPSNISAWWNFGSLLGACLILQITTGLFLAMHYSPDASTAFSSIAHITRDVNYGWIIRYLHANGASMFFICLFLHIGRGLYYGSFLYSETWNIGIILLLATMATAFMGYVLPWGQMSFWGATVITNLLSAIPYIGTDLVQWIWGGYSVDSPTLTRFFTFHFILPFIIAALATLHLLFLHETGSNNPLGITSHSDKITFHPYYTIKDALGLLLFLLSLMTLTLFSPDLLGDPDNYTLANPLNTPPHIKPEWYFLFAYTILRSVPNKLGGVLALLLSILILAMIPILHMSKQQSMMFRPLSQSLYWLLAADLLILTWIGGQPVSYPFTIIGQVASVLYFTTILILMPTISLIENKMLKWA
# Target: complex III (Homo sapiens, UniProt P00156)
# Conditions: cited from earlier work
substance,measurement,value
Antimycin A from Streptomyces sp. [A8674],electron transfer at complex III,Inhibits electron transfer at
